Legend:
Histone deacetylase 1 = Histone deacetylase 1 (Homo sapiens, UniProt Q13547); experiment: Ratio of IC50 for HDAC1 (unknown origin) preincubated for 5 mins to IC50 for HDAC1 (unknown origin) preincubated for 120 mins
Histone deacetylase 2 = Histone deacetylase 2 (Homo sapiens, UniProt Q92769); experiment: Ratio of IC50 for HDAC2 (unknown origin) preincubated for 5 mins to IC50 for HDAC2 (unknown origin) preincubated for 120 mins
Histone deacetylase 3 = Histone deacetylase 3 (Homo sapiens, UniProt O15379); experiment: Ratio of IC50 for HDAC3 (unknown origin) preincubated for 5 mins to IC50 for HDAC3 (unknown origin) preincubated for 120 mins

By UniProt entry, the sequences of proteins in these tests, tags left out. Where a name states a change or a piece, a line headed by the entry shows the natural chain unless it says otherwise.
UniProt Q13547, whole entry: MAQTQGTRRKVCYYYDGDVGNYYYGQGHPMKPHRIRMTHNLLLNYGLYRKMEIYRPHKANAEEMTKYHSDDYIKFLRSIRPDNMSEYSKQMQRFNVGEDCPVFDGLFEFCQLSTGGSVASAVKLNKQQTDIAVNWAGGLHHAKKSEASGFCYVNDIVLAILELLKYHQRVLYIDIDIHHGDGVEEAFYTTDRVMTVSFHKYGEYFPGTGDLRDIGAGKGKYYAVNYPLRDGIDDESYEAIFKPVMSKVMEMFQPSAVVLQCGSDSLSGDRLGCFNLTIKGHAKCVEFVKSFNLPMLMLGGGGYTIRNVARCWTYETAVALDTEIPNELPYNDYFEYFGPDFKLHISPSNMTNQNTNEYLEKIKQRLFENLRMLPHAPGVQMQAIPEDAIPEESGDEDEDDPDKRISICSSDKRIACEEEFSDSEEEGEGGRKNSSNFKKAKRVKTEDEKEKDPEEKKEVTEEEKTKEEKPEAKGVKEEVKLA
UniProt Q92769, whole entry: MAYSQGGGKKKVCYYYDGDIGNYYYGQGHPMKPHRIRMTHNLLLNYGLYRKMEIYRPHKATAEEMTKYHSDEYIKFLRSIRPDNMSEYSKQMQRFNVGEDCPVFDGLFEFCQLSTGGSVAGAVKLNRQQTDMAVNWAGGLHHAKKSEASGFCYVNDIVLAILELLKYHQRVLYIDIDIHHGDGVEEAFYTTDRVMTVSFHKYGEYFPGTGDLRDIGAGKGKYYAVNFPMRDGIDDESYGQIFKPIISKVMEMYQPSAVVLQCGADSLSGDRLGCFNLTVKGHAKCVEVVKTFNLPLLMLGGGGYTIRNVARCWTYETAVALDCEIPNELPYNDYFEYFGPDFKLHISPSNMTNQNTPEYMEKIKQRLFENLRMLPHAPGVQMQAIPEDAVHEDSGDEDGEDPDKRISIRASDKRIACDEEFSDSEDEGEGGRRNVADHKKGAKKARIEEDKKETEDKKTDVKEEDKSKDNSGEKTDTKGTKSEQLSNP
UniProt O15379: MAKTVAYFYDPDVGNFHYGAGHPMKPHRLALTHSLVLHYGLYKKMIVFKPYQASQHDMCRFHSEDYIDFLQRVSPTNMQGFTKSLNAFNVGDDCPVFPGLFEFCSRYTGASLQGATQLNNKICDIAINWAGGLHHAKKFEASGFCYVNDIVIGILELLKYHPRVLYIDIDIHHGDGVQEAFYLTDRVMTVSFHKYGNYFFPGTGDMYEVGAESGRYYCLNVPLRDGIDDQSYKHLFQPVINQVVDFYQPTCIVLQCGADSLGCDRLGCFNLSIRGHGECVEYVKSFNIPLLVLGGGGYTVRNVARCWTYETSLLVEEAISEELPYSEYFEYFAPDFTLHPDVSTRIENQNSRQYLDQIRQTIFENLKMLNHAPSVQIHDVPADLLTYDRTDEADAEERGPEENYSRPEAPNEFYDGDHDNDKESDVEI

Measured: Ratio IC50

CCCNNC(=O)CCCCCCC(=O)Nc1ccccc1
3: all assays above

From ChEMBL document CHEMBL5126566, “Comparison of three zinc binding groups for HDAC inhibitors - A potency, selectivity and enzymatic kinetics study” (Bioorg Med Chem Lett, 2022)
